In patent US6809209B2, “Nitrogen-containing group-13 anionic compounds for olefin polymerization” (ExxonMobil Chemical Patents Inc., priority 2000, dated 2004):

Assay: Solubility test in pentane
Assay type: physicochemical
Settings: stirred 30 minutes, filtered, filtrate evaporated
Experimental: Procedure: To 0.023 g of the invention compound [C6H5NBu2(H)][4-(C6H5 {Et3Si})—C6F4]4B was added 0.735 grams of pentane. The mixture was stirred for 30 minutes. The resulting mixture was filtered to remove undissolved solids. An portion of the filtrate weighing 0.423 grams was evaporated. After solvent removal the vessel contents, the borate salt, weighed 0.011 grams (2.6 wt %). Under analogous experimental conditions with another invention compound [C6H5NMe2(H)][4-(C6F5N{Me3Si})—C6F4]4B, no visible amount of activator remained from the filtrate after evaporation.

| Substance | solubility in pentane (borate salt recovered from filtrate) [wt %] |
| --- | --- |
| N,N-dibutyl anilinium tetrakis(4-(N-pentafluoro-N-triethylsilylamino)tetrafluorophenyl)borate [A^6] | 2.6 |
| N,N-dimethyl anilinium tetrakis (4-(N-pentafluorophenyl-N-trimethylsilylamino)tetrafluorophenyl) borate [A^2] | < 0.01 |
